Results reported in PMC11912937 (The Journal of Cell Biology, 2025).

Target: T1, ^MBPFACT (MBP-TEV-SPT16 + His-TEV-SSRP1), untreated (human, phosphorylated as purified from insect cells; residues not printed | phosphorylated as purified from insect cells; residues not given)
T1 construct: SPT16, FACT subunit; SSRP1, FACT subunit; Immobilised on amylose resin through MBP on SPT16; also called full-length ^MBPFACT; source: Tnao38 insect cells (baculovirus), purified (HisTrap, HiTrap Q, SEC); not shown: MBP, N-terminal, kept
Assay: pull-down; amylose resin, MBP-tagged FACT (untreated, dephosphorylated, kinase-treated or truncated) as bait, CCAN or CCAN subcomplexes as preys; 3 µM each; 20 mM Hepes pH 6.8, 300 mM NaCl, 2.5% glycerol, 1 mM TCEP, 0.01% Tween; 4°C; SDS-PAGE, Coomassie
Conditions: both partners purified

- binding result: binds
B1: CENP-TW^HFD (CENP-T^458-C/full-length CENP-W) (complex, human)
chain 1: AGLSHYVKLFSFYAKMPMERKALEMVEKCLDKYFQHLCDDLEVFAAHAGRKTVKPEDLELLMRRQGLVTDQVSLHVLVERHLPLEYRQLLIPCAYSGNSVFPAQ
chain 2: MALSTIVSQRKQIKRKAPRGFLKRVFKRKKPQLRLEKSGDLLVHLNCLLFVHRLAEESRTNACASKCRVINKEHVLAAAKVILKKSRG
notes: CENP-T, histone fold domain, residue 458 to the C-terminus; CENP-W; also called CENP-T^458-CW; source: recombinant, expressed and purified as previously reported
